Protein sequences, listed by entry. Tags and fused reporters are not part of them.
UniProt P47745, whole entry: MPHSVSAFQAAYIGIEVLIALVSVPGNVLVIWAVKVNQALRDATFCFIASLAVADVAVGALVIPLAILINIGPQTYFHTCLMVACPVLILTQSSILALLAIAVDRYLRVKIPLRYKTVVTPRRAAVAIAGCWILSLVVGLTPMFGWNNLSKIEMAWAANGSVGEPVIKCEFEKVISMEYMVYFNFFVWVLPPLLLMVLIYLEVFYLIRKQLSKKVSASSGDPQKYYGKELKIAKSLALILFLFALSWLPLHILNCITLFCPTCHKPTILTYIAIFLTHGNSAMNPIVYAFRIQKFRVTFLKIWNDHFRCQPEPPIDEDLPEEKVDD

According to patent publication US5290776A (dated 1994):

Molecular target: adenosine receptor known as A1 (Cavia porcellus, UniProt P47745)
Assay: Guinea-pig Atrial Bradycardic Test
Assay type: cell-based

For Cn1c(=O)c2[nH]cnc2n(C)c1=O [1,3-dimethylxanthine], the Kb was roughly 10 µM.
